The text below walks through data of paper PMC6692420, “Validation of [^125I]CPCR4.3 as an investigative tool for the sensitive and specific detection of hCXCR4 and mCXCR4 expression in vitro and in vivo” (EJNMMI Research, 2019).

The chains behind the UniProt entries cited, without tags or fusion partners.
UniProt P61073, whole entry: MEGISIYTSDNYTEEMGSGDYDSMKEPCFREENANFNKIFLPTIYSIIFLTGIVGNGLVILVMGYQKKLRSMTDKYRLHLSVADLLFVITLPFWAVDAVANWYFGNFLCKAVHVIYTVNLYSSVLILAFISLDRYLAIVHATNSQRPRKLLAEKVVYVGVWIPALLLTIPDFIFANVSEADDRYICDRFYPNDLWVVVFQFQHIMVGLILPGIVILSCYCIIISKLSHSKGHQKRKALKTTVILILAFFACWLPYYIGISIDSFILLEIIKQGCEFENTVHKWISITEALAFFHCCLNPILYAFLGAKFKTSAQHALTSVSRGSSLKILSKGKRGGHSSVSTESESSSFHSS

The target in the assay is T1, hCXCR4 (Homo sapiens, UniProt P61073).
T1 construct: endogenous hCXCR4 (Jurkat); endogenous in cells
Nature of the assay: Competitive binding assay (IC50) on Jurkat cells with [^125I]CPCR4.3 as radioligand. As to conditions: Jurkat human T cell leukemia cells, 200,000 cells/sample, radioligand [^125I]CPCR4.3. On the procedure: Affinities for human and murine CXCR4 (hCXCR4 and mCXCR4) were determined in competitive binding assays (IC50) using either Jurkat or Eμ-Myc 1080 mouse lymphoma cells (2 × 10^5 cells/sample) in Hank’s buffered salt solution (1% BSA) and [^125I]CPCR4.3 as radioligand. To allow data normalization, [^natGa] Pentixafor and FC-131 were included as references in this study. Experiments were performed in triplicate with n = 3 per concentration in each experiment. IC50 values were calculated using GraphPad Prism 6.01 (Graph Pad Software, San Diego, USA).

As to `N=C(N)NCCC[C@@H]1NC(=O)[C@H](CCCNC(=N)N)NC(=O)[C@@H](Cc2ccc(O)cc2)NC(=O)CNC(=O)[C@H](Cc2ccc3ccccc3c2)NC1=O` [FC-131], the IC50 (as a rule, the concentration that inhibits the measured activity by half) worked out at 12.4 ± 3.1 nM.
